# Data published in US10011614B2, “Bis-β-carboline compound and preparation method, pharmaceutical composition and use thereof” (XINJIANG HUASHIDAN PHARMACEUTICAL RESEARCH CO., LTD., priority 2012, dated 2018).
# Test system: Kunming mice
# Test: Acute toxicity test in mice (LD50)
# Settings: single intraperitoneal administration, observed two weeks, Bliss method
row,Structure (SMILES),acute toxicity LD50
1,"Cc1nccc2c3ccc(OC(C)C)cc3n(CCCCCCn3c4cc(OC(C)C)ccc4c4ccnc(C)c43)c12 [Compound 25, 1,6-bis(7-isopropoxy-1-methyl-β-carboline-9-yl) hexane]",220 mg/kg
2,"c1ccc2c(c1)c1ccncc1n2CCCCCn1c2ccccc2c2ccncc21 [Compound 2, 1,5-bis(β-carboline-9-yl)pentane]",150 mg/kg
3,"c1cncc(-c2nccc3c4ccccc4n(CCCCCCn4c5ccccc5c5ccnc(-c6cccnc6)c54)c23)c1 [Compound 32, 1,6-bis[1-(pyridine-3-yl)-β-carboline-9-yl) hexane]",250 mg/kg
